Measured values as given in patent publication US5593656A, “Metal-binding targeted polypeptide constructs” (Cytogen Corporation, priority 1995, dated 1997).

System: HT-29 colon carcinoma xenograft tumors
Settings: Tc-99m labeled, i.v.; for Average accumulation in HT-29 tumors (tumor localization percentage): 22 hours after injection; for Organ to Blood Ratio, Tumor (tumor:blood ratio) / Percent Of Injected Dose, Tumor: HT-29 tumor; for Percent Of Injected Dose, Blood / Percent Of Injected Dose, Kidney-L / Percent Of Injected Dose, Kidney-R / Percent Of Injected Dose, Liver / Percent Of Injected Dose, Lung / Percent Of Injected Dose, Muscle / Percent Of Injected Dose, Pancreas / Percent Of Injected Dose, Spleen: per gram of organ; for Percent Of Injected Dose, Tumor: per gram

Row | Substance | Organ to Blood Ratio, Blood (3 HR) | Organ to Blood Ratio, Kidney-L (3 HR) | Organ to Blood Ratio, Kidney-R (3 HR) | Organ to Blood Ratio, Liver (3 HR) | Organ to Blood Ratio, Lung (3 HR) | Organ to Blood Ratio, Muscle (3 HR) | Organ to Blood Ratio, Pancreas (3 HR) | Organ to Blood Ratio, Spleen (3 HR) | Organ to Blood Ratio, Blood (22 HR) | Organ to Blood Ratio, Kidney-L (22 HR) | Organ to Blood Ratio, Kidney-R (22 HR) | Organ to Blood Ratio, Liver (22 HR) | Organ to Blood Ratio, Lung (22 HR) | Organ to Blood Ratio, Muscle (22 HR) | Organ to Blood Ratio, Pancreas (22 HR) | Organ to Blood Ratio, Spleen (22 HR) | Average accumulation in HT-29 tumors (tumor localization percentage) | Organ to Blood Ratio, Tumor (tumor:blood ratio) (3 HR) | Organ to Blood Ratio, Tumor (tumor:blood ratio) (22 HR) | Percent Of Injected Dose, Blood (3 HR) | other results
1 | Benzoic acid bis-thiosemicarbazide derived from N-acetyl-Neuromedin C-hydrazide [Compound 6] | 1.00 | 9.24 | 8.51 | 0.76 | 0.87 | 0.15 | 0.25 | 0.72 | 1.00 | 25.44 | 24.22 | 1.45 | 3.80 | 0.45 | 0.70 | 2.40 | 0.38 % ID/g | 0.62 | 2.25 | 1.30% | Percent Of Injected Dose, Kidney-L (3 HR): 11.34%; Percent Of Injected Dose, Kidney-R (3 HR): 10.24%; Percent Of Injected Dose, Liver (3 HR): 0.92%; Percent Of Injected Dose, Lung (3 HR): 1.08%; Percent Of Injected Dose, Muscle (3 HR): 0.19%; Percent Of Injected Dose, Pancreas (3 HR): 0.32%; Percent Of Injected Dose, Spleen (3 HR): 0.86%; Percent Of Injected Dose, Blood (22 HR): 0.24%; Percent Of Injected Dose, Kidney-L (22 HR): 6.02%; Percent Of Injected Dose, Kidney-R (22 HR): 5.73%; Percent Of Injected Dose, Liver (22 HR): 0.34%; Percent Of Injected Dose, Lung (22 HR): 0.93%; Percent Of Injected Dose, Muscle (22 HR): 0.11%; Percent Of Injected Dose, Pancreas (22 HR): 0.17%; Percent Of Injected Dose, Spleen (22 HR): 0.59%; Percent Of Injected Dose, Tumor (3 HR): 0.78%; Percent Of Injected Dose, Tumor (22 HR): 0.54%
2 | Benzoic acid bis-thiourea derived from Neuromedin-C [Compound 3] | 1.00 | 7.01 | 6.86 | 0.42 | 0.76 | 0.14 | 0.23 | 0.34 | 1.00 | 9.73 | 9.84 | 0.61 | 1.07 | 0.22 | 0.50 | 0.69 | 0.51 % ID/g | 0.71 | 2.0 | 1.17% | Percent Of Injected Dose, Kidney-L (3 HR): 8.25%; Percent Of Injected Dose, Kidney-R (3 HR): 8.03%; Percent Of Injected Dose, Liver (3 HR): 0.49%; Percent Of Injected Dose, Lung (3 HR): 0.90%; Percent Of Injected Dose, Muscle (3 HR): 0.16%; Percent Of Injected Dose, Pancreas (3 HR): 0.27%; Percent Of Injected Dose, Spleen (3 HR): 0.40%; Percent Of Injected Dose, Blood (22 HR): 0.26%; Percent Of Injected Dose, Kidney-L (22 HR): 2.51%; Percent Of Injected Dose, Kidney-R (22 HR): 2.54%; Percent Of Injected Dose, Liver (22 HR): 0.16%; Percent Of Injected Dose, Lung (22 HR): 0.27%; Percent Of Injected Dose, Muscle (22 HR): 0.06%; Percent Of Injected Dose, Pancreas (22 HR): 0.13%; Percent Of Injected Dose, Spleen (22 HR): 0.18%; Percent Of Injected Dose, Tumor (3 HR): 0.83%; Percent Of Injected Dose, Tumor (22 HR): 0.51%

Where two headings read alike, the source gives them in different places.
